Measurements from paper PMC6072017, “Reversible covalent direct thrombin inhibitors” (PLoS ONE, 2018).

Assays:
[1] = target: T1, thrombin/thrombomodulin complex (Homo sapiens, UniProt P00734); assay: Protein C activation by thrombin/thrombomodulin; format: biochemical
[2] = target: human α-thrombin (Homo sapiens, UniProt P00734); assay: Fibrinogen cleavage (fibrinopeptide A by HPLC) in human platelet-poor plasma; format: biochemical
[3] = target: thrombin (Homo sapiens, UniProt P00734); assay: Enzyme inhibition assay, chromogenic substrate S-2238
[4] = target: T1, thrombin/thrombomodulin complex; assay: biochemical

## CC1CNc2c(cccc2S(=O)(=O)N[C@@H](CCCNC(=N)N)C(=O)N2CC[C@@H](C)C[C@@H]2C(=O)O)C1 (stereo partly shown) [Argatroban]
[1]
  IC50: 7 ± 2 nM
[2]
  IC50: 340 ± 110 nM
[3]
  IC50: 220 ± 100 nM
[4]
  IC50: 190 ± 40 nM
